Reference: patent US20260384443A1, “THIADIAZOLES AS GLUTAMINASE I INHIBITORS” (published 2026)

Amino acid sequences for entries named in this document (tags omitted). Residues count along the entry.
UniProt O94925, 55-669 limits assumed: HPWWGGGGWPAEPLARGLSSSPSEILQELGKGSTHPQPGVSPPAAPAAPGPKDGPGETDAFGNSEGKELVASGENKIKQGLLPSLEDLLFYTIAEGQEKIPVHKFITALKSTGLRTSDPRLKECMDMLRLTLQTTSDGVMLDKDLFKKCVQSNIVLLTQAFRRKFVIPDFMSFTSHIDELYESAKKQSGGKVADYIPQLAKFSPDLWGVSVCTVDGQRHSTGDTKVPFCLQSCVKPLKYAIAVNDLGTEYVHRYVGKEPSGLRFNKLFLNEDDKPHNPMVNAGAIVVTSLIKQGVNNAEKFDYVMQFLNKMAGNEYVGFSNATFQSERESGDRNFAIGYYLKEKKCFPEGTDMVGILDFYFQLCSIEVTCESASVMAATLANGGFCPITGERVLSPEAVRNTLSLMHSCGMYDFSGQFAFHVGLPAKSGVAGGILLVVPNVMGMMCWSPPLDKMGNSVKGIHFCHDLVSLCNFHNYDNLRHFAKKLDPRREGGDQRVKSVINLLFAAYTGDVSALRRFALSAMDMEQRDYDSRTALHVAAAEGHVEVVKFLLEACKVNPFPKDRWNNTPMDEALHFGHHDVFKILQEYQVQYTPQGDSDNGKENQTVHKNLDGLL
UniProt O94925, 73-669 limits assumed: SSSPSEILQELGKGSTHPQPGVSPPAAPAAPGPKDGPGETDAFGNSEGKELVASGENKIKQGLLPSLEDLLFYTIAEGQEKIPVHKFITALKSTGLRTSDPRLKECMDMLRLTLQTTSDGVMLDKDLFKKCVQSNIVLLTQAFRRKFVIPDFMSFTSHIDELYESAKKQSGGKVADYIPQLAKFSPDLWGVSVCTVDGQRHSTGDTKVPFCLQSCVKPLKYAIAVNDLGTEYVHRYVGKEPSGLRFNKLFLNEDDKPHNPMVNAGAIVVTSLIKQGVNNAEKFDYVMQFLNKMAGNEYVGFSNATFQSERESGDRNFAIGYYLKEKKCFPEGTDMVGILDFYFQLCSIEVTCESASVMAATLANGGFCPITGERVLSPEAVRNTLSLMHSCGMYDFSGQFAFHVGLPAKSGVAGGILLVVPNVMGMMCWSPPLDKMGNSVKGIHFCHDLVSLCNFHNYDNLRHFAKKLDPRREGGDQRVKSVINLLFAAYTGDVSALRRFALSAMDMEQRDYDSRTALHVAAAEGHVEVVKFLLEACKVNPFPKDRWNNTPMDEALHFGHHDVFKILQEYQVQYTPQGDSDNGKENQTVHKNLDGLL

What was measured:
GLS1 [1] = molecular target: T1, GLS1 (Homo sapiens, UniProt O94925); assay: GLS1 cell assay: intracellular glutamate level in A549 cells (Glutamine/Glutamate-Glo); conditions: read-out: Cell IC50, 2 h compound pre-incubation, then 24 h with L-Gln
GLS1 [2] = molecular target: T1, GLS1; assay: GLS1 enzymatic assay (three-stage coupled endpoint assay: GLS1/GDH/diaphorase, resorufin fluorescence); conditions: read-out: Enzyme IC50

Compound | IC50 (GLS1 [1]) [nM] | IC50 (GLS1 [2]) [nM]
Cc1ccccc1CN1CCC(C(C(=O)Nc2nnc(N[C@@H]3CCN(c4cccnn4)C3)s2)C(C)C)CC1 (some centres unmarked) | 32.1 | 78.2
Cc1ccc([C@H](C)N2CCC[C@@H](CC(=O)Nc3nnc(N[C@@H]4CCN(c5cccnn5)C4)s3)C2)cc1F (single isomer, unassigned) [Example 261] | 6.3 | 18.8
O=C(CC1CCC2(CC1)CCN(Cc1ccc(C(F)F)nc1)CC2)Nc1nnc(N[C@@H]2CCN(c3cccnn3)C2)s1 | 7.4 | 12
CC(C)Sc1ccccc1CN1CCC(OCC(=O)Nc2nnc(N[C@@H]3CCN(c4cccnn4)C3)s2)CC1 | 1.7 | 40.3
CC1(C)CCC(CN2CCO[C@H](CC(=O)Nc3nnc(N[C@@H]4CCN(c5cccnn5)C4)s3)C2)CC1 (single isomer, unassigned) [Example 73] | 0.9 | 67.1
CC[C@@H](C(=O)Nc1nnc(N[C@@H]2CCN(c3cccnn3)C2)s1)C1CCN(Cc2ccccc2OC(C)C)CC1 (single isomer, unassigned) [Example 209] | 116 | 80
CC(C)(C1CCCCC1)N1CCO[C@H](CC(=O)Nc2nnc(N[C@@H]3CCN(c4cccnn4)C3)s2)C1 (single isomer, unassigned) [Example 152] | 3.8 | 17.1
COc1cc(CN2CCC[C@@H](CC(=O)Nc3nnc(N[C@@H]4CCN(c5cccnn5)C4)s3)C2)cc(F)c1C | 10.3 | 25.8
CC(C)Sc1ccccc1CN1CC2(CO[C@@H](CC(=O)Nc3nnc(N[C@@H]4CCN(c5cccnn5)C4)s3)C2)C1 (single isomer, unassigned) [Example 215] | 3.2 | 17.7
CC(C)(C)n1ccc(CN2CCC(SCC(=O)Nc3nnc(N[C@@H]4CCN(c5cccnn5)C4)s3)CC2)c1 | 66.1 | 22.2
O=C(CSC1CCN(Cc2cccc(OC(F)(F)F)c2)CC1)Nc1nnc(N[C@@H]2CCN(c3cccnn3)C2)s1 | 0.8 | 85.3
O=C(C[C@@H]1CN(C2CCC3(CCC3)CC2)CCO1)Nc1nnc(N[C@@H]2CCN(c3cccnn3)C2)s1 (single isomer, unassigned) [Example 275] | 2.8 | 18.8
Cc1cc(C)cc(CN2CC3(CCCN(CC(=O)Nc4nnc(N[C@@H]5CCN(c6cccnn6)C5)s4)C3)C2)c1 | 6.6 | 30.2
O=C(CC1CCN(Cc2ccccc2OC2CCC2)CC1)Nc1nnc(N[C@@H]2CCN(c3cccnn3)C2)s1 | 35.2 | 25.8
Cc1ccccc1CN1CCC([C@H](C(=O)Nc2nnc(N[C@@H]3CCN(c4cccnn4)C3)s2)C2CCC2)CC1 (single isomer, unassigned) [Example 218] | 150 | 254
CC1(C)CCC(N2CCOC(CC(=O)Nc3nnc(N[C@@H]4CCN(c5cccnn5)C4)s3)C2)CC1 (single isomer, unassigned) [Example 109] | 18.9 | 35.6
O=C(CC1CC2(CCN(Cc3cccc(OC(F)(F)F)c3)C2)C1)Nc1nnc(N[C@@H]2CCN(c3cccnn3)C2)s1 (some centres unmarked) | 5.9 | 134
CC(C)Sc1ccccc1CN1CC2(CO[C@@H](CC(=O)Nc3nnc(N[C@@H]4CCN(c5cccnn5)C4)s3)C2)C1 (single isomer, unassigned) [Example 216] | 4.2 | 21.4
CCN1CCN(Cc2cccc(OC(F)(F)F)c2)[C@H](CC(=O)Nc2nnc(N[C@@H]3CCN(c4cccnn4)C3)s2)C1 (single isomer, unassigned) [Example 205] | 44 | 76.8
COc1ccc(CN2CCC(CC(=O)Nc3nnc(N[C@@H]4CCN(c5cccnn5)C4)s3)CC2)nc1C(F)(F)F | 31.5 | 19.9
CC(C)Sc1ccccc1CN1CC2(CCN(CC(=O)Nc3nnc(N[C@@H]4CCN(c5cccnn5)C4)s3)C2)C1 | 3.5 | 15.8
CC(C)(C)OC(=O)N1CCC(CN2CCC[C@@H](CC(=O)Nc3nnc(N[C@@H]4CCN(c5ccc(Cl)nn5)C4)s3)C2)CC1 | 152 | 112
O=C(CC1CN(C2CCC3(CCCC3)CC2)CCO1)Nc1nnc(N[C@@H]2CCN(c3cccnn3)C2)s1 (some centres unmarked) | 5.6 | 22.4
O=C(C[C@@H]1CCCN(Cc2cccc(OC(F)(F)F)c2)C1)Nc1nnc(N[C@@H]2CCN(c3cccnn3)C2)s1 | 2.8 | 57.6
CSc1ccccc1CN1CCC[C@@H](OCC(=O)Nc2nnc(N[C@@H]3CCN(c4cccnn4)C3)s2)C1 (single isomer, unassigned) [Example 103] | 7.9 | 67.4
O=C(C[C@H]1CN(C2CCC3(CC2)CC3)CCO1)Nc1nnc(N[C@@H]2CCN(c3cccnn3)C2)s1 (single isomer, unassigned) [Example 252] | 6.4 | 15.4

The remaining compounds from weak to strong by IC50 (GLS1 [1]), led by results:

IC50 (GLS1 [1]) [nM] | IC50 (GLS1 [2]) [nM] | Compound
70.2 | 55 | COc1c(C)cc(CN2CCC(CC(=O)Nc3nnc(N[C@@H]4CCN(c5cccnn5)C4)s3)CC2)cc1C
33.4 | 67.9 | O=C(C[C@@H]1COCCN1C1CCCCC1)Nc1nnc(N[C@@H]2CCN(c3cccnn3)C2)s1 (single isomer, unassigned) [Example 227]
32.1 | 54.1 | CC(C)N1CCN(Cc2cccc(OC(F)F)c2)[C@H](CC(=O)Nc2nnc(N[C@@H]3CCN(c4cccnn4)C3)s2)C1 (single isomer, unassigned) [Example 249]
31.1 | 86.5 | CC1(C)CCC(CN2CCC[C@@H](CC(=O)Nc3nnc(N[C@@H]4CCN(c5cccnn5)C4)s3)C2)CC1
24.1 | 52.3 | Cc1cc(C)cc(CN2CCC(CC(=O)Nc3nnc(N[C@@H]4CCN(c5cccnn5)C4)s3)CC2)c1
14.6 | 31.2 | CN1CCN(CC2CCC(C)(C)CC2)C[C@H]1CC(=O)Nc1nnc(N[C@@H]2CCN(c3cccnn3)C2)s1 (single isomer, unassigned) [Example 279]
10 | 37.6 | CC(C)Sc1ccccc1CN1CCC2(CCN(CC(=O)Nc3nnc(N[C@@H]4CCN(c5cccnn5)C4)s3)CC2)C1
5.1 | 22.6 | Cc1ccc([C@H](C)N2CCC[C@@H](CC(=O)Nc3nnc(N[C@@H]4CCN(c5cccnn5)C4)s3)C2)c(F)c1 (single isomer, unassigned) [Example 264]
4.8 | 62.9 | O=C(C[C@H]1C[C@@]2(CCN(Cc3cccc(OC(F)(F)F)c3)C2)C1)Nc1nnc(N[C@@H]2CCN(c3cccnn3)C2)s1 (single isomer, unassigned) [Example 188]
3.4 | 19.7 | O=C(C[C@@H]1CCCN(Cc2cc(F)cc(F)c2)C1)Nc1nnc(N[C@H]2CN(c3cccnn3)C[C@@H]2F)s1
3.4 | 31.9 | O=C(Nc1nnc(N[C@@H]2CCN(c3cccnn3)C2)s1)[C@H]1CC2(CCN(Cc3cccc(OC(F)F)c3)CC2)CO1 (single isomer, unassigned) [Example 196]
1.8 | 92.2 | Cc1c(F)cc(F)cc1CN1CCC[C@@H](CC(=O)Nc2nnc(N[C@@H]3CCN(c4cccnn4)C3)s2)C1
1.7 | 30.8 | CC(C)(C)[C@H]1CC[C@@H](N2CCOC(CC(=O)Nc3nnc(N[C@@H]4CCN(c5cccnn5)C4)s3)C2)CC1 (some centres unmarked)
1.7 | 44.9 | CC1(C)CCC(CN2CCOC(CC(=O)Nc3nnc(N[C@@H]4CCN(c5cccnn5)C4)s3)C2)CC1 (some centres unmarked)
